{"sequences": {"note": "By UniProt entry, the sequences of proteins in these tests, tags left out.", "UniProt P08913, whole entry": "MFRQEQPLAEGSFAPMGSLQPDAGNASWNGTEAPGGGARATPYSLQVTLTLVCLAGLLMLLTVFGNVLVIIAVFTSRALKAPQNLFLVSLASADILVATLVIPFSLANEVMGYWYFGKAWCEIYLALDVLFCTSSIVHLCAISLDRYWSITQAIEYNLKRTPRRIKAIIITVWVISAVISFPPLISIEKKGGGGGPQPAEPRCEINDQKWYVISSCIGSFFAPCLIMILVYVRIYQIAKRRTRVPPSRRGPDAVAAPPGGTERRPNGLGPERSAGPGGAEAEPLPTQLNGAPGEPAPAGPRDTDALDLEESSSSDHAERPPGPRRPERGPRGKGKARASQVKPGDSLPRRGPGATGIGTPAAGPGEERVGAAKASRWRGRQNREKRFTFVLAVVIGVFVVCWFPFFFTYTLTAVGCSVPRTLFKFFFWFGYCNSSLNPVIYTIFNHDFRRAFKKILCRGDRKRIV", "UniProt P18825, whole entry": "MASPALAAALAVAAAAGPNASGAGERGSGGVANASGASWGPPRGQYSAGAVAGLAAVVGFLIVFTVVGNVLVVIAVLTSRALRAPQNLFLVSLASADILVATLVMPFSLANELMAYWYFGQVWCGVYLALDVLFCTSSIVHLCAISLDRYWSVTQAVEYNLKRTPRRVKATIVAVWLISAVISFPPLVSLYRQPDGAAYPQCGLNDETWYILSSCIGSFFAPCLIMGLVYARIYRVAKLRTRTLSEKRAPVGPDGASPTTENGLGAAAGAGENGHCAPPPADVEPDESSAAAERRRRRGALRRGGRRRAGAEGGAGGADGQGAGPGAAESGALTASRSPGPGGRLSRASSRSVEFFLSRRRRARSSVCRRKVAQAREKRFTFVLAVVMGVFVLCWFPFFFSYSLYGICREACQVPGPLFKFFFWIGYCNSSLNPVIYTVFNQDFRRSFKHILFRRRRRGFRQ", "UniProt P31645, whole entry": "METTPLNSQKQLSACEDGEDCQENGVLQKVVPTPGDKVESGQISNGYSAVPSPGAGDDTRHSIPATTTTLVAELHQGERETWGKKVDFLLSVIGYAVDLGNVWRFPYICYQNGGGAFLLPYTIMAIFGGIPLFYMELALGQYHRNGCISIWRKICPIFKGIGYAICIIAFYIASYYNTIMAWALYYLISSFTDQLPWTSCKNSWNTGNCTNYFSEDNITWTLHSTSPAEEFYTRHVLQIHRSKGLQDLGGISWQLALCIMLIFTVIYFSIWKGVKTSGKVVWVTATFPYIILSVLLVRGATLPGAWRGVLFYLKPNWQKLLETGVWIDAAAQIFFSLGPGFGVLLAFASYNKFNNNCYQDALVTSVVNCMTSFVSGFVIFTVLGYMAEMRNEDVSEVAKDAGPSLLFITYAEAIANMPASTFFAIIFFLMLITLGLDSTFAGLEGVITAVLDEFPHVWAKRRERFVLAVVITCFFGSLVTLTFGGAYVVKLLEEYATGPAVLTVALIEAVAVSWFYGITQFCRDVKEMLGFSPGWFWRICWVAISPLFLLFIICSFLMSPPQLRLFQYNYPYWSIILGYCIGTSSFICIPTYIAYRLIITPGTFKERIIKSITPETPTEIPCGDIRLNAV"}, "source": "patent US20090111801A1", "about": "“SUBSTITUTED PYRAZINONE DERIVATIVES FOR USE AS A MEDICINE” (Janssen Pharmaceutica N.V., priority 2006, published 2009)", "key": {"hα2A receptor": {"target": "hα2A receptor (Homo sapiens, UniProt P08913)", "assay": "Radioligand binding experiment for α2A-adrenoceptor ([3H]raulwolscine, CHO cell membranes)", "conditions": "[3H]raulwolscine binding"}, "hα2C receptor": {"target": "hα2C receptor (Homo sapiens, UniProt P18825)", "assay": "Radioligand binding experiment for α2C-adrenoceptor ([3H]raulwolscine, CHO cell membranes)", "conditions": "[3H]raulwolscine binding"}, "5HT-Transporter": {"target": "5HT-Transporter (Homo sapiens, UniProt P31645)", "assay": "Binding experiment for the 5HT-transporter ([3H]paroxetine, human platelet membranes)", "conditions": "[3H]paroxetine 0.5 nM"}}}
{"smiles": "C/C(=C\\c1ccccc1)CN1CCN(c2nccn(CC(c3ccccc3)c3ccccc3)c2=O)CC1", "values": [{"measurement": "h-α2A pIC50", "setting": "hα2A receptor", "result": 6.2}, {"measurement": "h-α2C pIC50", "setting": "hα2C receptor", "result": 6.8}, {"measurement": "h-5HTT pIC50", "setting": "5HT-Transporter", "result": 5.4}]}
{"smiles": "CCCn1ccnc(NC2CCN(C/C=C/c3ccccc3)CC2)c1=O", "values": [{"measurement": "h-α2A pIC50", "setting": "hα2A receptor", "result": 6.1}, {"measurement": "h-α2C pIC50", "setting": "hα2C receptor", "result": 6.6}, {"measurement": "h-5HTT pIC50", "setting": "5HT-Transporter", "result": 5.2}]}
{"smiles": "C/C(=C\\c1ccccc1)CN1CCC(Nc2ncc[nH]c2=O)CC1", "note": "[7-1]", "values": [{"measurement": "h-α2A pIC50", "setting": "hα2A receptor; tested form: 2HCl", "result": 6.9}, {"measurement": "h-α2C pIC50", "setting": "hα2C receptor; tested form: 2HCl", "result": 7.6}, {"measurement": "h-5HTT pIC50", "setting": "5HT-Transporter; tested form: 2HCl", "result": "<5"}]}
